The assay has as its target human IL-2 Rαβγ (trimeric IL-2 receptor) on cells (human) (UniProt P01589).

As for “IL-2/MAB602 complex (from UniProt P60568)”, the EC50 of IL-2-induced phosphorylation of STAT5a,b, NK-92 cells, IL-2 pre-complexed with 100 nM antibody was 0.9 nM.

Values taken from US20210188969A1, “ANTIBODIES THAT BIND INTERLEUKIN-2 AND USES THEREOF” (published 2021).
